Laboratory results from US20040156869A1, “2-substituted quinazolin-4-ylamine analogues” (Neurogen Corporation, priority 2002, published 2004).

Amino acid sequences for entries named in this document (tags omitted).
UniProt Q8NER1, whole entry: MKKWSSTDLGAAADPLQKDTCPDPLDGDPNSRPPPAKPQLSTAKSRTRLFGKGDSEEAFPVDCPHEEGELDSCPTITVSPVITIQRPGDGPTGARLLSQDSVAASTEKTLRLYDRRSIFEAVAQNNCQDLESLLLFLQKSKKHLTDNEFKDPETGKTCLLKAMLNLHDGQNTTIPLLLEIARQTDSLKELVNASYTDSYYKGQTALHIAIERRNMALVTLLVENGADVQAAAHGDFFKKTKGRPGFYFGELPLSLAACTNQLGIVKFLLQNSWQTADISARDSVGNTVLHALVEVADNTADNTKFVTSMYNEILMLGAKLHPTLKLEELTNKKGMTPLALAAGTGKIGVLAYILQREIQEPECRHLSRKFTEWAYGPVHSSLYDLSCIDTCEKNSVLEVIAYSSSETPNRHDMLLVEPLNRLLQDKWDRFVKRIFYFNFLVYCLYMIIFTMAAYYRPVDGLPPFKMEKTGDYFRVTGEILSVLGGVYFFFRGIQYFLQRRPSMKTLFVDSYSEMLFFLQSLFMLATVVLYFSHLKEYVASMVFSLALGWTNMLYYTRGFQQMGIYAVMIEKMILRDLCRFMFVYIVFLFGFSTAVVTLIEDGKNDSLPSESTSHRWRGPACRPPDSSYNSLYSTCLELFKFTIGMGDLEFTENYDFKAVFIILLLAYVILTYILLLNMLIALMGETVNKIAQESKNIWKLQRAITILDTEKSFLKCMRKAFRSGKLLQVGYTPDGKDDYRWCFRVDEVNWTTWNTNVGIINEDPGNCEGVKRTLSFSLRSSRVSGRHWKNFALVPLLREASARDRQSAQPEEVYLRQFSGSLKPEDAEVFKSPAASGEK

Target: human capsaicin receptor (VR1) (Homo sapiens, UniProt Q8NER1)
Test: Capsaicin receptor binding assay ([3H]RTX competition, VR1-transfected HEK293 membranes)
[1] = Table II, determined as described in Example 5

SMILES | Ki (Table III, capsaicin receptor binding) | Ki [1]
FC(F)(F)c1ccc(Nc2nc(Cn3ccnc3)nc3cc(-c4ncccc4C(F)(F)F)ccc23)cc1 | < 1 µM | 
CCOC(=O)c1cc2nc(-c3ncccc3C(F)(F)F)ccc2c(Nc2ccc(C(F)(F)F)cc2)n1 |  | < 1 µM
C#Cc1ccc(Nc2nc(COCC(C)C)nc3nc(-c4ncccc4Cl)ccc23)cc1 |  | < 1 µM
